{"sequences": {"note": "Protein sequences, listed by entry. Tags and fused reporters are not part of them.", "UniProt Q99705, whole entry": "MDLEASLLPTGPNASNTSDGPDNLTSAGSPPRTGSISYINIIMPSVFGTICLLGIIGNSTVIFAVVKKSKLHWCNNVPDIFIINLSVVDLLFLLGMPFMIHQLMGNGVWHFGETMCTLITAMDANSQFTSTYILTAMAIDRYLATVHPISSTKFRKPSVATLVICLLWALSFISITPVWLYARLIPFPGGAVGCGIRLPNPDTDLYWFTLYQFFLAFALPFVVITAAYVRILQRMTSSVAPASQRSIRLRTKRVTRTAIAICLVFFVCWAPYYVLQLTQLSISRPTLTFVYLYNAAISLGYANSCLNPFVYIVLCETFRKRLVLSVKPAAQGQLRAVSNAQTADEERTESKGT"}, "source": "patent US6664273B2", "about": "“Piperidine based MCH antagonists for treatment of obesity and CNS disorders” (Schering Corporation, priority 2001, dated 2003)", "target": "MCH receptor (Homo sapiens, UniProt Q99705)", "test": "MCH Receptor Binding Assay", "conditions": "read-out: Avg. MCH Ki; [125I]-MCH, SPA, membranes from CHO cells expressing the MCH receptor", "description": "Membranes from CHO cells expressing the MCH receptor were prepared by lysing cells with 5 mM HEPES for 15 min at 4C. Cell lysates were centrifuged ([…], 15 min) and the pellet was re-suspended in 5 mM HEPES. For each 96-well plate (Microlite, Dynex Technologies), 1 mg of cell membranes were incubated with 10 mg of wheat germ agglutinin SPA beads (Amersham) for 5 min at 4 C in a volume of 10 ml of binding buffer (25 mM HEPES, 10 mM MGCl2, 10 mM NaCl, 5 mM MnCl2, 0.1% BSA). The membrane/bead mixture was centrifuged (1500×g, 3.5 min), the supernatant was aspirated, and the pellet was re-suspended in 10 ml binding buffer. The centrifugation, aspiration and re-suspension were then repeated. The membrane/bead mixture (100 μl) was then added to 96-well plates containing 50 μl of 500 pM [^125I]-MCH (NEN) and […] of the appropriate concentration of compound (4× the desired final concentration). Nonspecific binding was determined by including 1 μM MCH in the binding reaction. The binding reaction was incubated at room temperature for 2 h. Plates were then analyzed in a TOPCOUNT microplate scintillation counter (Packard). Data was analyzed and Ki values were determined using GraphPad Prism.", "data": [{"smiles": "CC1CCC(N2CCC(OCC(=O)Nc3cc(Cl)cc(Cl)c3)(c3ccc(-c4cccc(C#N)c4)cc3)CC2)CC1", "note": "(stereo not shown)", "values": [{"measurement": "Ki", "value": 13, "unit": "nM"}]}]}
